We go through one substance from patent US20070202165A1, “Method for a supplemental dietary composition having a multi-phase dissolution profile” (priority 2006, published 2007).

The data set is described as follows: Solubility test with filtration: amount dissolved until saturated and dry powder remaining on filter paper. It is filed as physicochemical. The conditions noted are these: for Max Amount Dissolved: 100 mL water, added in 1 g increments until visually saturated; for Dry Powder On Filter: gravity filtration, filter paper dried.

As to “glycine-L-arginine-alpha-ketoisocaproic acid calcium”, under “Powder type Fine-milled”, the “Max Amount Dissolved” value worked out at 18 g and the “Dry Powder On Filter” value was 0.31 g. For the setting “Powder type Regular”, the “Max Amount Dissolved” value is 18 g and the “Dry Powder On Filter” value worked out at 0.42 g. Where the note is “regular vs fine-milled, potential theoretical improvement in bioavailability”, the “Fold Change (unfiltered regular substance divided by unfiltered fine-milled substance)” value was found to be 1.4 fold.
